Columns and labels:
Format in all cases: cell-based, human
TYRP1 = test: Melanogenic enzyme protein expression, western blot; conditions: HEMs, pre-treated 60 minutes, 4.0 mM L-tyrosine 48 hours
[1] = test system: microphthalmia-associated transcription factor (MITF); test: MITF protein expression in HEMs; conditions: pre-treated 60 minutes, 4.0 mM L-tyrosine 48 hours, up to 10 μM
[2] = test system: microphthalmia-associated transcription factor (MITF); test: MITF mRNA expression in HEMs, qPCR; conditions: pre-treated 60 minutes, 4.0 mM L-tyrosine 48 hours, up to 10 μM
DCT = test: Melanogenic enzyme protein expression, western blot; conditions: HEMs, pre-treated 60 minutes, 4.0 mM L-tyrosine 48 hours
HEMs = test: Melanin synthesis in L-tyrosine-stimulated HEMs; conditions: 3 μM and 10 μM for 60 minutes, then 4.0 mM L-tyrosine 48 hours
tyrosinase (TYR) = test: mRNA expression of melanogenic enzymes, qRT-PCR; conditions: HEMs, pre-treated 60 minutes, 4.0 mM L-tyrosine 48 hours
[3] = test system: DOPA chrome tautomerase (DCT); test: mRNA expression of melanogenic enzymes, qRT-PCR; conditions: HEMs, pre-treated 60 minutes, 4.0 mM L-tyrosine 48 hours
[4] = test system: tyrosinase-related protein 1 (TYRP1); test: mRNA expression of melanogenic enzymes, qRT-PCR; conditions: HEMs, pre-treated 60 minutes, 4.0 mM L-tyrosine 48 hours

OC[C@H]1O[C@@H](Oc2ccc(O)cc2)[C@H](O)[C@@H](O)[C@@H]1O [arbutin]
no effect: TYRP1 protein expression level, effect on the increase by L-tyrosine (TYRP1) | MITF protein expression level, effect on the increase by L-tyrosine [1] | MITF mRNA expression level, effect on the increase by L-tyrosine [2] | DCT protein expression level, effect on the increase by L-tyrosine (DCT)

O=C(CO)Oc1ccc(/C=C/c2cc(OC(=O)CO)cc(OC(=O)CO)c2)cc1 [resveratryl triglycolate]
reduced: extracellular melanin level, effect on the increase by L-tyrosine (HEMs) | intracellular melanin level, effect on the increase by L-tyrosine (HEMs)

Oc1ccc(C=Cc2cc(O)cc(O)c2)cc1 [resveratrol]
reduced: TYRP1 protein expression level, effect on the increase by L-tyrosine (TYRP1) | TYR mRNA expression level, effect on the increase by L-tyrosine (tyrosinase (TYR)) | extracellular melanin level, effect on the increase by L-tyrosine (HEMs) | intracellular melanin level, effect on the increase by L-tyrosine (HEMs) | DCT mRNA expression level, effect on the increase by L-tyrosine [3] | MITF protein expression level, effect on the increase by L-tyrosine [1] | TYRP1 mRNA expression level, effect on the increase by L-tyrosine [4] | MITF mRNA expression level, effect on the increase by L-tyrosine [2] | DCT protein expression level, effect on the increase by L-tyrosine (DCT)

CC(=O)Oc1ccc(C=Cc2cc(OC(C)=O)cc(OC(C)=O)c2)cc1 [RTA, resveratryl triacetate]
reduced: TYRP1 protein expression level, effect on the increase by L-tyrosine (TYRP1) | TYR mRNA expression level, effect on the increase by L-tyrosine (tyrosinase (TYR)) | extracellular melanin level, effect on the increase by L-tyrosine (HEMs) | intracellular melanin level, effect on the increase by L-tyrosine (HEMs) | DCT mRNA expression level, effect on the increase by L-tyrosine [3] | MITF protein expression level, effect on the increase by L-tyrosine [1] | TYRP1 mRNA expression level, effect on the increase by L-tyrosine [4] | MITF mRNA expression level, effect on the increase by L-tyrosine [2] | DCT protein expression level, effect on the increase by L-tyrosine (DCT)

O=C(O)CO [GA, glycolic acid]
no effect: TYRP1 protein expression level, effect on the increase by L-tyrosine (TYRP1) | MITF protein expression level, effect on the increase by L-tyrosine [1] | MITF mRNA expression level, effect on the increase by L-tyrosine [2] | DCT protein expression level, effect on the increase by L-tyrosine (DCT)

Source: patent US10662140B2, “Method for skin-whitening using composition containing resveratryl triglycolate” (KYUNGPOOK NATIONAL UNIVERSITY INDUSTRY-ACADEMIC COOPERATION …, priority 2016, dated 2020)
